{
  "source": "ChEMBL document CHEMBL1129620",
  "about": "(J Med Chem, 1996)",
  "system": "Y-1",
  "assay": "Stimulation of steroid (pregnenolone) biosynthesis in mouse Y-1 adrenocortical cells at 40 uM",
  "data": [
    {"smiles": "Cc1ccc(C2=C(OC(=O)N(C)C)c3cccn3-c3ccccc3O2)cc1", "values": [
      {"measurement": "Production", "result": 38.4, "unit": "ng 2hr-1"}
    ]},
    {"smiles": "CN(C)C(=O)OC1=C(c2ccccc2)Oc2ccccc2-n2cccc21", "values": [
      {"measurement": "Production", "result": 33.7, "unit": "ng 2hr-1"}
    ]}
  ]
}
